These are literature values, as cited in patent publication US7435386B2, “Reagentless and reusable biosensors with tunable differential binding affinities and methods of making” (dated 2008).

Structures are written as SMILES. This is a selection: effects in other tests are not listed, and their absence says nothing.

The conditions of this data set: cited from earlier work.

Take `Cc1c([N+](=O)[O-])cc([N+](=O)[O-])cc1[N+](=O)[O-]`: the “TNT solubility in aqueous solutions” value is 100 µg/mL.
